The values that follow are results of earlier work, collected in patent US6413717B1, “Methods for indentifying anti-cancer agents” (Corixa Corporation, priority 1998, dated 2002).

One data set has as its system mda-7. The conditions noted are these: IFN-β 2000 U and MEZ 10 ng/mL, agents known to modulate gene expression.
The next data set deals with human melanoma cells. The conditions noted are these: IFN-β 2000 U and MEZ 10 ng/mL.

B1: IFN-β: human fibroblast interferon, used as positive control (protein, UniProt P01574 22-187, looked up)
Interferon beta: MSYNLLGFLQRSSNFQCQKLLWQLNGRLEYCLKDRMNFDIPEEIKQLQQFQKEDAALTIYEMLQNIFAIFRQDSSSTGWNETIVENLLANVYHQINHLKTVLEEKLEKEDFTRGKLMSSLHLKRYYGRILHYLKAKEYSHCAWTIVRVEILRNFYFINRLTGYLRN
Consider B1, for which, in the data set on mda-7, the mda-7 expression entry is listed as “induce an increase”. Besides, in the data set with human melanoma cells, the proliferative potential entry is reported as “irreversible loss of proliferative potential” and the terminal differentiation result is given as “induction of terminal differentiation”.
